Patent publication US20230337678A1, “NITRIC OXIDE-RELEASING ANTIBACTERIAL COMPOUNDS, FORMULATIONS, AND METHODS PERTAINING THERETO” (KNOW BIO, LLC, priority 2020, published 2023)

Key:
SCID mice = assay: Maximum tolerated dose study in mice; conditions: intratracheal, once daily for 3 consecutive days

For [O-]/[N+](=N\O)C(/[N+]([O-])=N/O)/[N+]([O-])=N/O, which “clinical condition of mice” value (SCID mice; 1-100 mg/kg, duration of study) is on record?
Its value is “bright, alert, and responsive”.

What about the adverse effects (SCID mice; up to maximum dose group 6 (100 mg/Kg)) of the same molecule?
Its adverse effects is “No adverse effects were observed”.

What about the T½ (NO release half-life, Table 14) of the same molecule?
The T½ was 3 h.

What about the “NO Load” value (Table 14, unit not given) of the same molecule?
The value was 6.7.

What about the NO-loading (compositions of MTDD (NCT-19-096) and β-cyclodextrin) of the same molecule?
Its NO-loading is 6.7 µmol/mg.
